Measurements published in PubChem BioAssay AID504577 (NMMLSC, 2011).
Only a part is listed here, and it is no random draw. Some of these compounds have results that are not shown, active ones among them. Calls of active or inactive are those of the source. No stated cut-off is given here; in the data, active means response mostly above about 7.3% (no sharp cut-off); inactive means mostly below about 5.4%.

Assay: yeast vacuolar ATPase proton transport modulators – pHLuorin cytosolic pH fluorescence, primary screen (AID 504577); further: actives read high
Details: S. cerevisiae, at 10 µM, hits give high values

SMILES | response
O=C(NCC1(N2CCCCC2)CCCCC1)c1cc([N+](=O)[O-])ccc1Cl | inactive: 0.72%
CN1[C@@H]2CC[C@H]1CC(OC(=O)C(O)(c1ccccc1)c1ccccc1)C2 (stereo partly specified) | inactive: 0.9%
CCN(CC)CC(C)C(C)OC(=O)C(O)(c1ccccc1)c1ccccc1 (stereo unspecified) | inactive: 0.97%
COc1cc(SC)ccc1C(=O)NCC1(N(C)C)CCCCC1 | inactive: 0.22%
CC(C)N1C(=O)CC2(CCN(CCOC(=O)C(O)(c3ccccc3)c3ccccc3)CC2)C1=O | inactive: -0.87%
Cc1ccc(C(=O)NCC2(N3CCCCC3)CCCCC2)cc1 | inactive: -1.8%
Cc1ccccc1C(=O)NCC1(N2CCCCC2)CCCCC1 | inactive: -0.16%
CN(C)C1CCCC1OC(=O)C(O)(c1ccccc1)c1ccccc1 (stereo unspecified) | inactive: -1.23%
CN(C)c1ccc(C(=O)NCC2(N(C)C)CCCCC2)cc1 | inactive: -3.58%
C=CCN1CCN(CCOC(=O)C(O)(c2ccccc2)c2ccccc2)CC1 | inactive: 1.81%
O=C(NCC1(N2CCCCC2)CCCCC1)c1cc(F)c(F)cc1Cl | inactive: 5.33%
COc1ccc(C(=O)NCC2(N(C)C)CCCCC2)cc1 | inactive: 1.05%
Cc1cc(C(=O)NCC2(N3CCCCC3)CCCCC2)ccc1[N+](=O)[O-] | inactive: 1.99%
CCN1CCCC(OC(=O)C2(O)c3ccccc3C=Cc3ccccc32)C1 (stereo unspecified) | inactive: 4.36%
O=C(NCC1(N2CCCCC2)CCCCC1)c1cccc(Br)c1 | inactive: -1.45%
CN(C)C1(CNC(=O)c2ccc(Br)cc2)CCCCC1 | inactive: 2.16%
COc1cc(C(=O)NCC2(N(C)C)CCCCC2)c([N+](=O)[O-])cc1OC | inactive: -1.84%
COc1cccc(C(=O)NCC2(N3CCCCC3)CCCCC2)c1 | inactive: -1.13%
COc1ccc(Cl)cc1C(=O)NCC1(N(C)C)CCCCC1 | inactive: 2.94%
O=C(NCC1(N2CCCCC2)CCCCC1)c1cccc(Cl)c1 | inactive: -1.97%
O=C(OC1CN2CCC1CC2)C(CO)(c1ccccc1)c1ccccc1 (stereo unspecified) | inactive: -0.67%
C=C(C)C#CC(O)(C(=O)OC1CCN(C)CC1)c1ccccc1 (stereo unspecified) | inactive: -3.11%
COc1ccc(Br)c(C(=O)NCC2(N3CCCCC3)CCCCC2)c1 | inactive: 2.09%
CC(C)Oc1ccc(C(=O)NCC2(N(C)C)CCCCC2)cc1 | inactive: -3.77%
O=C(OCCN1CCCC1)C(O)(c1ccccc1)c1ccccc1 | inactive: -3.18%
CN(C)c1cccc(C(=O)NCC2(N(C)C)CCCCC2)c1 | inactive: -0.85%
